Assay results from paper PMC9570967 (Molecules, 2022).

Amino acid sequences for entries named in this document (tags omitted).
UniProt P35372, whole entry: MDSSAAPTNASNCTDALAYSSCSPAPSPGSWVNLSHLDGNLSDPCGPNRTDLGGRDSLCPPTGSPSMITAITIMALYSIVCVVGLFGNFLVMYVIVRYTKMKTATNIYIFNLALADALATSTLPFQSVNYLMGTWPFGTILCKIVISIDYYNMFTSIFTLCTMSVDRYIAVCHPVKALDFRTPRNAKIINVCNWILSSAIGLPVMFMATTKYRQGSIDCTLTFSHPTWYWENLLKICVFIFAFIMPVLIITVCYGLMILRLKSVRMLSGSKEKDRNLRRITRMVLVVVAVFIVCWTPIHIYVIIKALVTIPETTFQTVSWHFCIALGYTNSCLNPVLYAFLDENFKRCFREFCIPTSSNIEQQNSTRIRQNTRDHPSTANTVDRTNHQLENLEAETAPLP

Target: human μ-opioid receptor (OPRM1) (Homo sapiens, UniProt P35372)
Test: cell-based
Details: not given

First: C/C=C\[C@@H]1[C@@H]2CCC[C@@]1(c1cccc(O)c1)CCN2CCc1ccccc1 [Compound 21, 3-((1S,5R,9S)-2-Phenethyl-9-((Z)-prop-1-en-1-yl)-2-azabicyclo [3.3.1]nonan-5-yl)phenol]
Second: C/C=C\[C@H]1[C@@H]2CCC[C@@]1(c1cccc(O)c1)CCN2CCc1ccccc1 [Compound 20, 3-((1S,5R,9R)-2-Phenethyl-9-((Z)-prop-1-en-1-yl)-2-azabicyclo [3.3.1]nonan-5-yl)phenol]
The EC50 of the first is lower: 4.66 nM for the first, greater than 10000 nM for the second.

Compared with `CC/C=C\[C@@H]1[C@H]2CCC[C@]1(c1cccc(O)c1)CCN2CCc1ccccc1` [Compound 24, 3-((1R,5S,9S)-9-((Z)-But-1-en-1-yl)-2-phenethyl-2-azabicyclo [3.3.1]nonan-5-yl)phenol], `CC/C=C\[C@@H]1[C@@H]2CCC[C@@]1(c1cccc(O)c1)CCN2CCc1ccccc1` [Compound 26, 3-((1S,5R,9S)-9-((Z)-But-1-en-1-yl)-2-phenethyl-2-azabicyclo [3.3.1]nonan-5-yl)phenol] is higher in EC50: 14.7 nM for the first, greater than 10000 nM for the second.

Going from `C/C=C\[C@@H]1[C@H]2CCC[C@]1(c1cccc(O)c1)CCN2CCc1ccccc1` [Compound 18, 3-((1R,5S,9S)-2-Phenethyl-9-((Z)-prop-1-en-1-yl)-2-azabicyclo [3.3.1]nonan-5-yl)phenol] to `CC/C=C\[C@H]1[C@@H]2CCC[C@@]1(c1cccc(O)c1)CCN2CCc1ccccc1` [Compound 27, 3-((1S,5R,9R)-9-((Z)-But-1-en-1-yl)-2-phenethyl-2-azabicyclo [3.3.1]nonan-5-yl)phenol], the EC50 rises from 0.07 nM to greater than 10000 nM. The first is the more potent here.

Compared with `C=C[C@@H]1[C@@H]2CCC[C@@]1(c1cccc(O)c1)CCN2CCc1ccccc1` [Compound 14, 3-((1S,5R,9S)-2-Phenethyl-9-vinyl-2-azabicyclo [3.3.1]nonan-5-yl)phenol], `C=C[C@H]1[C@@H]2CCC[C@@]1(c1cccc(O)c1)CCN2CCc1ccccc1` [Compound 15, 3-((1S,5R,9R)-2-Phenethyl-9-vinyl-2-azabicyclo [3.3.1]nonan-5-yl)phenol] is higher in EC50: 3.94 nM for the first, greater than 10000 nM for the second. The first is the more potent here.

First: C=C[C@H]1[C@@H]2CCC[C@@]1(c1cccc(OC)c1)CCN2CCc1ccccc1 [Compound 13, (1S,5R,9R)-5-(3-Methoxyphenyl)-2-phenethyl-9-vinyl-2-azabicyclo [3.3.1]nonane]
Second: CC/C=C\[C@H]1[C@H]2CCC[C@]1(c1cccc(O)c1)CCN2CCc1ccccc1 [Compound 23, 3-((1R,5S,9R)-9-((Z)-But-1-en-1-yl)-2-phenethyl-2-azabicyclo [3.3.1]nonan-5-yl)phenol]
The EC50 of the first is higher: greater than 10000 nM for the first, 11.6 nM for the second. The second is the more potent here.

Same assay, conditions: read-out: MOR Agonist %Emax ± SEM

With `C/C=C\[C@H]1[C@H]2CCC[C@]1(c1cccc(O)c1)CCN2CCc1ccccc1` [Compound 17, 3-((1R,5S,9R)-2-Phenethyl-9-((Z)-prop-1-en-1-yl)-2-azabicyclo [3.3.1]nonan-5-yl)phenol] the Emax was 89.5%.
